Measured values published in patent US9580411B2, “Substituted sulfonamide compounds” (Hoffmann-La Roche Inc., priority 2012, dated 2017).

The chains behind the UniProt entries cited, without tags or fusion partners.
UniProt O75762, whole entry: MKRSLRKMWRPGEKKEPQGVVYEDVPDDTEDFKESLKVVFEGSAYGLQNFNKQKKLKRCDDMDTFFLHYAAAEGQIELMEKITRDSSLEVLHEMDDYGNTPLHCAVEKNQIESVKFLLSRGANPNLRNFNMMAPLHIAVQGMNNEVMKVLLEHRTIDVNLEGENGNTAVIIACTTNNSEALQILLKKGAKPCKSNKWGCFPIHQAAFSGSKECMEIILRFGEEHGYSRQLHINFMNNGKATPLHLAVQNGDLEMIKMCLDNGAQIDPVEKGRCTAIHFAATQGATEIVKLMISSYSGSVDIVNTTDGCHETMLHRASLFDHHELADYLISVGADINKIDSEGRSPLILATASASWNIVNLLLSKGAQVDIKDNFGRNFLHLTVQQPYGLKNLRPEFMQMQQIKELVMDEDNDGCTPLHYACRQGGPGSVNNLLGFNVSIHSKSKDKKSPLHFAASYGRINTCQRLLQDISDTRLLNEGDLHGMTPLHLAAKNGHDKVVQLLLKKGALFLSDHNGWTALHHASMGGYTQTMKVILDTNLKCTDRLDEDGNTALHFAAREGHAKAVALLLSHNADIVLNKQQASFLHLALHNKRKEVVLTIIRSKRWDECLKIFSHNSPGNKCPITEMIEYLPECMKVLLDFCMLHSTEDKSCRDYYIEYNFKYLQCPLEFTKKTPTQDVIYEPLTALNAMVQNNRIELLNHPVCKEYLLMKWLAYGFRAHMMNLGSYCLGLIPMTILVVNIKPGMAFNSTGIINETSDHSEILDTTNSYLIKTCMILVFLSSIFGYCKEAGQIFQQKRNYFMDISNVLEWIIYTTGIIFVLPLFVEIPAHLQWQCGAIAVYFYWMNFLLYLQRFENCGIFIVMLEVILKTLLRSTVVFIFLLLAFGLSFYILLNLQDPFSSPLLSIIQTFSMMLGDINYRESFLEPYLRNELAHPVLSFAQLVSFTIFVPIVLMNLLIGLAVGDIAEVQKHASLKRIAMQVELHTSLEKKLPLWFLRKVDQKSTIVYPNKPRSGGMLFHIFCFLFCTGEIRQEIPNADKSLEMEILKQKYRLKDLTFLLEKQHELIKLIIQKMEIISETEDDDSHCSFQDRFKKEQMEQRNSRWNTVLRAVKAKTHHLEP

Target: hTRPA1 (Homo sapiens (Human), UniProt O75762)
Experiment: Dose response calcium flux assay (FLIPR), ChanTest hTRPA1-CHO stably transfected cell line
Settings: read-out: IC50 (FLIPR), CHO-K1 Tet-On human TRPA1 cells, cinnamaldehyde agonist (final 100 uM)
Experimental: IC50 Determinations of Exemplified Compounds Dose Response Assay: Chan Test hTRPA1-CHO Stably Transfected Cell Line
CHO-K1 Tet-On_HOMSA_TRPA1_Clone_20
Chinese Hamster Ovary cells, inducible expression
• Ham's F-12 with 10% tetracycline-free FBS • 1× penicillin-streptomycin • 1× glutamax • 0.01 mg/ml Blasticidin • 0.40 mg/ml Zeocin • The cell line doubling rate was ˜15 hours. […] Experiments were run at 24 hours post induction. Plating Conditions CHOK1/TRPA1 Cells: • Harvested cells with 0.025% trypsin/EDTA. • Resuspended cells in growth media without selection antibiotics. • Measured cell density and diluted to 2.4×10^5 cells/ml in media containing 1 ug/ml Doxycycline Plate 25 ul/well into 384 well black/clear tissue culture-treated plates. • Incubated overnight at 37° C. […]
After incubation, both the cell and compound plates were brought to the FLIPR and 20 ul of the diluted compounds/antagonist/bk were transferred to the cell plates by the FLIPR. […] During the compound addition as well as agonist addition, fluorescence readings were taken simultaneously from all 384 wells of the cell plate every 1.5 seconds. Five readings were taken to establish a stable baseline, then 20 ul of sample was rapidly (30 ul/sec) and simultaneously added to each well of the cell plate. […] Responses (increase in peak fluorescence) in each well following agonist addition was determined. […]

Q: Which IC50 does the source give for `CC(C)N(CC(=O)NCc1cccc(-c2ccc(C(F)(F)F)cc2)c1)S(=O)(=O)c1ccccc1` here?
A: Its IC50 is 48 nM.
